Some of the results follow.
These molecules were tested on A. baumannii ATCC 17978 (assay: relative growth (fraction of control); higher = less inhibition). Conditions: 50 µM.
C=CCNC(=O)[C@H]1[C@@H]2C(=O)O[C@@H](c3ccccc3)[C@@H](c3ccccc3)N2[C@@H](c2ccccc2OCCO)[C@]12C(=O)Nc1ccc(C#CC3=CCCCC3)cc12 gave a relative growth of 1.22. For CCCCCCc1nc(-c2ccc(-c3ccc(Cl)c(Cl)c3)o2)cc2c1[Si](C(C)C)(C(C)C)O[C@H]2c1ccccc1, the relative growth was 1.02. CCCNC(=O)[C@@H]1c2ccccc2C(=O)N(Cc2cc(F)cc(C(F)(F)F)c2)[C@H]1c1ccc(CO)cc1 gave a relative growth of 0.962. O=C(C[C@H]1C=C[C@@H](NC(=O)c2cnccn2)[C@H](CO)O1)NCc1ccccc1F gave a relative growth of 1.08. CN1CCN2c3ccccc3Cc3ccccc3C2C1.Cl (stereo not drawn) gave a relative growth of 1.07. CCN(CC)CCNC(C(=O)OCCC(C)C)c1ccccc1.Cl.Cl (stereo not drawn) was tested, and the relative growth was 1.04. With CCNC(=O)c1sc(C)nc1N the relative growth was 0.822. Molecule Clc1ccc(CSc2nc3ccccc3s2)cc1 has a relative growth of 1.12. CC(C)C#Cc1ccc2c(c1)O[C@@H](CN(C)C(=O)c1cccc(F)c1)[C@@H](C)CN([C@@H](C)CO)S2(=O)=O gave a relative growth of 1.04. Molecule Cc1cc2c(s1)Nc1ccccc1N=C2N1CCN(C)CC1 has a relative growth of 0.958. CCN(CC)CCOC(=O)c1ccc(N)cc1.Cl showed a relative growth of 1.05. Cn1cnc(S(=O)(=O)N2C[C@@H](O)COC[C@H]3O[C@@H](CC(=O)NCc4cc(F)cc(F)c4)CC[C@@H]32)c1 gave a relative growth of 0.998. For NNC(=O)CCCCC(=O)NO, the relative growth was 1. For NCc1ccc(S(=O)(=O)N2CCOCC2)cc1, the relative growth was 1.03. O=C(C[C@@H]1CC[C@H]2[C@@H](COC[C@H](O)CN2Cc2ccccc2F)O1)N[C@H]1CCN(Cc2ccccc2)C1 gave a relative growth of 0.958. O=C1COC2(CN1)COC2 was tested, and the relative growth was 1.05. In the case of CC(=O)N(C)CCc1ccc(C)[n+]([O-])c1, the relative growth is reported as 1.05. In the case of CCC(=O)N(C)C[C@@H]1Oc2ncc(C#C[C@@H](C)O)cc2C(=O)N([C@@H](C)CO)C[C@H]1C, the relative growth is reported as 1.01. Work on C=C[C@H]1CN2CC[C@H]1C[C@@H]2[C@H](O)c1ccnc2ccc(OC)cc12.Cl yielded a relative growth of 1.03. CC(C)(C)c1ccc(NC(=O)N[C@H]2CCCc3ccccc32)cc1 gave a relative growth of 1.09. Molecule CO[C@H](CN(C)C(=O)c1ccccc1F)[C@H](C)CN([C@@H](C)CO)S(=O)(=O)c1ccc(Cl)cc1 has a relative growth of 0.832. Work on COc1ccc(S(=O)(=O)N(C)C[C@@H]2Oc3ccc(NC(=O)Nc4cccc5c4CCCC5)cc3CC(=O)N([C@@H](C)CO)C[C@@H]2C)cc1Cl yielded a relative growth of 0.894. Molecule CC(C)OC(=O)C(C)(C)Oc1ccc(C(=O)c2ccc(Cl)cc2)cc1 has a relative growth of 0.999. In the case of C[C@H](CO)N1C[C@H](C)[C@H](CN(C)S(=O)(=O)c2ccccc2)Oc2cc(Br)ccc2S1(=O)=O, the relative growth is reported as 0.946. In the case of O=C(C[C@H]1C=C[C@H](NC(=O)C2CCOCC2)[C@H](CO)O1)NCCc1cscn1, the relative growth is reported as 1.01. CN1CCN(C(=O)C[C@H]2C[C@@H]3c4cc(NS(=O)(=O)c5ccc(F)cc5)ccc4O[C@@H]3[C@@H](CO)O2)CC1 gave a relative growth of 1.05. Molecule CC(C)c1nc(/N=C/N(C)C)nc(=O)n1C has a relative growth of 1.02. Cc1ccc(C=Nn2nnnc2N)s1 showed a relative growth of 0.968. O=C(O)[C@H]1C2C(=O)N(C3CC3)C[C@]23C=C[C@H]1O3 (stereo partly drawn) was tested, and the relative growth was 1.19. Molecule c1cc(-c2nnc(Cn3cncn3)[nH]2)ccn1 has a relative growth of 1.04. CCOc1ccc2nc(C34CC5CC(CC(C5)C3)C4)ccc2c1 was tested, and the relative growth was 1.15. CC(C)(C)OC(=O)NC(=NCCn1cc(-c2cccc(/C=C/C(=O)NO)c2)nn1)NC(=O)OC(C)(C)C was tested, and the relative growth was 1.11. CCOC(=O)[C@H](CCc1ccccc1)N[C@@H](C)C(=O)N1Cc2cc(OC)c(OC)cc2C[C@H]1C(=O)O.Cl showed a relative growth of 1.05. Molecule C=CCC[C@H](Cc1ccc(F)cc1)C(=O)OC[C@@H](NC(=O)[C@@H](CC=C)CC(=O)N(CCO)Cc1ccccc1)C(C)(C)C has a relative growth of 1.25. CN(C)CCC(c1ccc(Cl)cc1)c1ccccn1.O=C(O)/C=C\C(=O)O (stereo not drawn) showed a relative growth of 0.913. O=C(C[C@@H]1CC[C@H](NC(=O)Cc2ccccn2)[C@@H](CO)O1)NCCCN1CCOCC1 was tested, and the relative growth was 0.969. In the case of O=C(COc1ccccc1)Nc1nn[nH]n1, the relative growth is reported as 0.921. CCOc1ccc2nc(S(N)(=O)=O)sc2c1 showed a relative growth of 1.05. C[C@@H]1CN([C@H](C)CO)C(=O)c2cc(C#Cc3ccccc3F)cnc2O[C@@H]1CN(C)S(=O)(=O)c1ccccc1 was tested, and the relative growth was 0.953. Molecule c1coc(CNc2ncnc3[nH]cnc23)c1 has a relative growth of 1.02. In the case of CCNC(=O)C[C@@H]1CC[C@H](NC(=O)C2CCOCC2)[C@H](CO)O1, the relative growth is reported as 1.17. In the case of C=CC[C@@H](CC(=O)N(CCO)Cc1ccccc1)C(=O)N[C@H](COC(=O)[C@@H](CC=C)CC(=O)OC(C)(C)C)Cc1c[nH]c2ccccc12, the relative growth is reported as 1.12. In the case of C[C@@H]1CCCCO[C@H](CN(C)Cc2ccc3c(c2)OCO3)[C@H](C)CN([C@@H](C)CO)C(=O)c2cc(NS(=O)(=O)c3ccc(Cl)cc3)ccc2O1, the relative growth is reported as 1.05. O=C(CN1CCOCC1)NCC[C@H]1CC[C@@H](NS(=O)(=O)c2ccc(Cl)cc2)[C@@H](CO)O1 showed a relative growth of 0.942. For CC[C@]1(O)CC2CN(CCc3c([nH]c4ccccc34)[C@@](C(=O)OC)(c3cc4c(cc3OC)N(C=O)[C@H]3[C@@](O)(C(=O)OC)[C@H](OC(C)=O)[C@]5(CC)C=CCN6CC[C@]43[C@@H]65)C2)C1.O=S(=O)(O)O (stereo partly drawn), the relative growth was 0.965. O=C(O)c1ccccc1O gave a relative growth of 1.24. For CC1/C=C/C=C/C=C/C=C/C=C/C=C/C=C/C(OC2O[C@H](C)[C@@H](O)[C@H](N)[C@@H]2O)CC(O)C(C(=O)O)C(O)CC(=O)CC(O)CC(O)CC(O)CC(=O)CCCC(=O)CC(=O)OC1C(C)CC(C)C(O)CC(=O)c1ccc(N)cc1 (stereo partly drawn), the relative growth was 1.13. With CO[C@H]1CN(C)C(=O)c2ccc(NS(=O)(=O)c3cn(C)cn3)cc2OC[C@H](C)N(CC2CC2)C[C@H]1C the relative growth was 0.882. NCC[C@H]1CC[C@H](NC(=O)NC2CCCCC2)[C@H](CO)O1 gave a relative growth of 0.946. With CCOC(=O)c1c[nH]c(=S)[nH]c1=O the relative growth was 1.01. COc1ccc(C(=O)Nc2cccc(CN3C(=O)[C@@]4(O[C@@H](CC(=O)N5Cc6ccccc6C[C@H]5CO)[C@H]([Si](C)(C)c5ccc(OC)cc5)[C@H]4C)c4ccccc43)c2)cc1 gave a relative growth of 1.02. With CCOC(=O)C1=C[C@@H](OC(CC)CC)[C@H](NC(C)=O)[C@@H](N)C1.O=P(O)(O)O the relative growth was 1.04. In the case of O=c1oc2cc(O)ccc2s1, the relative growth is reported as 0.924. With O=C(C[C@H]1C[C@@H]2c3cc(NC(=O)c4ccc5c(c4)OCO5)ccc3O[C@@H]2[C@H](CO)O1)NCc1ccc(Oc2ccccc2)cc1 the relative growth was 1.17. Work on COC(=O)Nc1c(C)cc(C)cc1C yielded a relative growth of 1.03. CN(C)CN1C(=O)c2ccccc2C1=O was tested, and the relative growth was 1.01. N.N.O=C1[O][Pt][O]C(=O)C12CCC2 gave a relative growth of 0.802. Work on Cc1ccc2c(c1)c1nc3ccccc3nc1n2Cc1ccccc1 yielded a relative growth of 1.02. In the case of CN(C)CCCNC(=O)C[C@H]1C=C[C@@H](NC(=O)Cc2cccnc2)[C@@H](CO)O1, the relative growth is reported as 1.01. COc1oc(C(=O)NC2CCCCC2)c(-c2ccc(Cl)cc2)c1S(=O)(=O)c1cccc(Cl)c1 was tested, and the relative growth was 0.93. With CC(C)(C)OC(=O)C[C@H]1CC=CC[C@@H](CC(=O)NCCO)C(=O)N[C@@H](Cc2ccccc2)COC1=O the relative growth was 0.967. Work on C/C(=C\C(=O)OCCCCCCCCC(=O)O)C[C@@H]1OC[C@H](C[C@@H]2O[C@H]2[C@@H](C)[C@H](C)O)[C@@H](O)[C@H]1O yielded a relative growth of 0.969. Molecule CCOC(=O)c1cnn2c(N)c(C#N)cnc12 has a relative growth of 1. In the case of Nc1cc(=O)[nH]c(=O)n1Cc1ccccc1, the relative growth is reported as 1.02. In the case of COCC#Cc1ccc2c(c1)O[C@H](CN(C)Cc1ccc3c(c1)OCO3)[C@H](C)CN([C@@H](C)CO)S2(=O)=O, the relative growth is reported as 0.856. For NC(=O)CN1CCCCCC1=O, the relative growth was 0.822. CC(N)C12CC3CC(CC(C3)C1)C2.Cl (stereo not drawn) showed a relative growth of 1.01. With COc1cccc(S(=O)(=O)Nc2ccc3c(c2)[C@H]2C[C@H](CC(=O)NCc4ccccc4F)O[C@@H](CO)[C@H]2O3)c1 the relative growth was 0.826. For COc1ccc(C(=O)Nc2cccc(CN3C(=O)[C@]4(O[C@H](CC(=O)N(CCO)Cc5ccccc5)[C@@H]([Si](C)(C)c5ccc(OC)cc5)[C@@H]4C)c4ccccc43)c2)cc1, the relative growth was 1.13. COc1ccc(OC)c(C(O)CNC(=O)CN)c1.Cl (stereo not drawn) was tested, and the relative growth was 1. C[C@]12CCC(=O)C=C1CCC1C2[C@@H](O)C[C@@]2(C)C1CC[C@]2(O)C(=O)CO (stereo partly drawn) gave a relative growth of 0.993. C=CCSc1n[nH]c(=O)[nH]c1=O gave a relative growth of 0.94. Cc1cn([C@H]2CC[C@@H](CO)O2)c(=O)[nH]c1=O was tested, and the relative growth was 1.02. With C[C@H]1CN([C@@H](C)CO)S(=O)(=O)c2ccc(C#Cc3ccncc3)cc2O[C@H]1CN(C)C(=O)c1ccncc1 the relative growth was 0.939. For CC(C)NC(=O)N[C@H]1CC[C@H](CCN)O[C@H]1CO, the relative growth was 1.17. O=C(C[C@@H]1CC=CC[C@H](NC(=O)OCC2c3ccccc3-c3ccccc32)C(=O)OCCNC1=O)NCCO showed a relative growth of 1.07. Work on C=CCC[C@H](Cc1ccc(F)cc1)C(=O)OC[C@@H]1CCCN1C(=O)[C@H](CC=C)CC(=O)N(CCO)Cc1ccccc1 yielded a relative growth of 0.985. In the case of C[C@H]1CN([C@@H](C)CO)S(=O)(=O)c2ccc(C#CCN(C)C)cc2O[C@H]1CN(C)C(=O)CN(C)C, the relative growth is reported as 0.989. Work on C/C=C/c1ccc2c(c1)O[C@@H](CN(C)C(=O)c1ccc3c(c1)OCO3)[C@H](C)CN([C@H](C)CO)S2(=O)=O yielded a relative growth of 1.07. COc1cc(/C=C/C(=O)OC[C@H]2O[C@@H](O[C@@H]3OC=C[C@H]4[C@H](O)[C@@H]5O[C@]5(CO)[C@@H]34)[C@H](O)[C@@H](O)[C@@H]2O)ccc1O was tested, and the relative growth was 1.06. In the case of C[C@@H]1CN([C@@H](C)CO)S(=O)(=O)c2ccc(-c3ccc(C(=O)N(C)C)cc3)cc2O[C@@H]1CN(C)C(=O)C1CCC1, the relative growth is reported as 0.974. In the case of O=C(O)c1cc(/N=N/c2ccc(S(=O)(=O)Nc3ccccn3)cc2)ccc1O, the relative growth is reported as 1.18. In the case of C=CCOC(=O)[C@H]1[C@@H]2C(=O)O[C@@H](c3ccccc3)[C@@H](c3ccccc3)N2[C@@H](c2ccc(OCCOC(=O)[C@H]3C[C@H]4C(=O)N[C@@H](CC(C)C)C(=O)N4[C@H]3c3cccc(OCCO)c3)cc2)[C@]12C(=O)Nc1ccc(I)cc12, the relative growth is reported as 1.27.
